This passage reports Solubility in water results from patent US11702443B2, “Therapeutic agents and methods” (Pop Test Oncology LLC, priority 2016, dated 2023).

This series is described as follows: Solubility.

For the substance “Tetrakis{3-[(tricyclo[3.3.1.1^3,7]decan-1-ammonio)methyl]benzyl}ammonium pentachloride [PT162]”, the Solubility in water entry is “water-soluble”.
